Biological target: T1, GST–[T233E]SPAK kinase (Homo sapiens, UniProt Q9UEW8, T231E)
T1 construct: made in house; host or cells: E. coli
Assay: SPAK kinase assay with CATCHtide and IC50 determination
Format: biochemical
Details: ATP 0.1 mM; inhibitor 1000 uM
Description: II. Experimental procedures
1. Reagents and General methods
Tissue culture reagents were from Life Technologies. P81 phosphocellulose paper was from Whatman […]
and [γ-32P]-ATP was from Perkin Elmer. […] Protein G […]
sepharose was from Amersham. DNA constructs used for transfection were purified from Escherichia coli DH5α using Qiagen or Invitrogen plasmid Maxi kits according to the manufacturer's protocol. All DNA constructs were verified by DNA sequencing.
2. Plasmids, protein expression and purification
DNA clones were from the Division of Signal Transduction Therapy (University of Dundee). The SPAK proteins were expressed in E. Coli and purified as described previously 1.
3. SPAK kinase assays and IC50 determination
SPAK kinase assays employed CATCHtide (cation chloride co-transporter peptide substrate). […]
cpm/pmol) and the indicated concentrations of inhibitor dissolved in DMSO. […] The papers were washed extensively and incorporation of [γ-32P]ATP into CATCHtide was quantified by Cerenkov counting.
IC50 values were calculated with GraphPad Prism using non-linear regression analysis.
4. Fluorescence polarization […]
the absence or presence of five-fold molar excess of wild-type MO25α. b Kinetic data determined for B ZT-1a in the absence or presence of five-fold molar excess of wild-type MO25α. […]

Compound: CN[C@@H]1C[C@H]2O[C@@](C)([C@@H]1OC)n1c3ccccc3c3c4c(c5c6ccccc6n2c5c31)C(=O)NC4 [staurosporine, reference compound]
- SPAK kinase activity signal (Fig S3 source data): 78
